Earlier results on one compound are cited in patent US6995022B1, “Screening of xenobiotics and endogenous compounds for metabolic transformation, formation of toxic metabolites, and bioavailability” (Board of Trustees of the University of Illinois, priority 1998, dated 2006).

This data set relates to cytochrome P450 isozymes. To be noted: cited from earlier work.

As to `CN(C)CCCN1c2ccccc2CCc2ccccc21` [imipramine], the “metabolism according to the literature” value is “metabolized extensively”.
